According to ChEMBL document CHEMBL4229345, “Inhibition of trypanosome alternative oxidase without its N-terminal mitochondrial targeting signal (ΔMTS-TAO) by cationic and non-cationic 4-hydroxybenzoate and 4-alkoxybenzaldehyde derivatives active against T. brucei and T. congolense” (Eur J Med Chem, 2018):

Tested on: HFF
Assay: Cytotoxicity against HFF cells assessed as reduction in cell viability after 30 hrs by resazurin-based assay
Conditions: human

SMILES: O=[As]c1ccccc1 (stereo unspecified)
- CC50: 290 nM
